Literature values in patent US20030199496A1, “Pharmaceutical compositions containing alpha3beta4 nicotinic receptor antagonists and methods of their use” (priority 2002, published 2003).

Protein sequences, listed by entry. Tags and fused reporters are not part of them.
UniProt P35372, whole entry: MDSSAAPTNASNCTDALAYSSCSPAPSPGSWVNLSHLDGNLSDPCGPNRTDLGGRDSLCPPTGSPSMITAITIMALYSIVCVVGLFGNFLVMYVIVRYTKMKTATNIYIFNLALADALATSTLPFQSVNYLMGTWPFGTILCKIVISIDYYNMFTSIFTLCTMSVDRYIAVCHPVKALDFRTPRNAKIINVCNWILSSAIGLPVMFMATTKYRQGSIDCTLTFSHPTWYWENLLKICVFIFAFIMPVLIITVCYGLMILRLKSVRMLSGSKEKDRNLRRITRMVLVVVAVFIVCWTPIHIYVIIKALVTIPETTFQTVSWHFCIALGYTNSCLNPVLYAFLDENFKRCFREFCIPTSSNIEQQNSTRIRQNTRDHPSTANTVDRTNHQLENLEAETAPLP

Legend:
mu-opioid receptors = mu-opioid receptors (Homo sapiens, UniProt P35372); details: (−)- versus (+)-enantiomer

Substance	fold lesser affinity to bind mu opioid receptor than the (+)-enantiomer (mu-opioid receptors)	neurotoxicity, especially on Purkinje nerve cells (Purkinje nerve cells; at certain doses)	tremors (Purkinje nerve cells; human and animal subjects)
(−)-18-methoxycoronaridine	10 fold	–	–
ibogaine	–	neurotoxic	cause tremors
